Biological target: TEAD1 (Homo sapiens, UniProt P28347)
Test: TEAD1-Luciferase reporter assay (MCF-7 cell-based TEAD1-Luc assay)
Conditions: cells treated with compound overnight, luciferase chemiluminescence readout
Procedure: TEAD1-Luciferase Reporter Assay to Characterize the Pharmacological Properties of the Tead1 Covalent Inhibitors
FIG. 1 is a schematic illustration of the mechanism of TEAD1 inhibition by the disclosed compounds, which is the theoretical basis for the development of a TEAD-YAP/TAZ cell-based functional assay to characterize the pharmacological properties of the synthesized inhibitor compounds. The MCF-7 cell-based TEAD1-Luc assay for the IC50 measurement was performed as below. Compounds 2, 4, 5, and 7, representing different chemical scaffolds, were characterized. About 200 μL of culture medium was placed in each of the 10^4 cell/well in a 96-well plate. The next day the cells were treated with the synthesized compounds for overnight. The luciferase activity was measured with a chemiluminescent assay kit. Specifically, the plate was equilibrated at room temperature. […] and 50 μL of the medium was left inside. To each well was added 50 μL Luciferase reagents. The plates were gently rocked for more than about 15 minutes at room temperature. The luminescence signal was then read and recorded. Table 2 below summarizes the measured IC50 values for the disclosed compounds.

By UniProt entry, the sequences of proteins in these tests, tags left out.
UniProt P28347, whole entry: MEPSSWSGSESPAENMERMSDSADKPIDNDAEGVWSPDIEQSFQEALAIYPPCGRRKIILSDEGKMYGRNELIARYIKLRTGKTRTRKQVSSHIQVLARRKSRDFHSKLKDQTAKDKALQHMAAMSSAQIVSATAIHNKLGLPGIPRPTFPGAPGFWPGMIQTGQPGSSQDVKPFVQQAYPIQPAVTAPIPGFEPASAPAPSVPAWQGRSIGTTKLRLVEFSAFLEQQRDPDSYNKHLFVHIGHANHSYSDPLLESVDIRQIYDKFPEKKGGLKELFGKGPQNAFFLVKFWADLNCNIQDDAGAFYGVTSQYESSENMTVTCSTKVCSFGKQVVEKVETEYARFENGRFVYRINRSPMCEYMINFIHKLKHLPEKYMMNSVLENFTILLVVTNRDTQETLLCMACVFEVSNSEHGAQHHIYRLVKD

IC50: < 100 nM
SMILES: C=CC(=O)N1CC(OCc2cccc(C(F)(F)F)c2)C1

— patent publication US12583815B2, “Inhibitors of YAP/TAZ-TEAD oncoproteins, synthesis and use thereof” (BRIDGENE BIOSCIENCES, INC., priority 2020, dated 2026)
